Experimental data from PubChem BioAssay AID686939 (The Scripps Research Institute Molecular Screening Center, 2013).
The list shows a part of the results, in another mix than the full data. Calls of active or inactive are those of the source.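 Rule for the calls: active = activation above the solvent-only control well mean plus 3 SD, averaged across control plates (cut at about 5.2% in these data); inactive = the rest.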

Assay: GAL4-VP16 luciferase reporter activation, counter-screen for SMARCA2 (BRM) activator project, cell-based, pG5luc, luminescence, high throughput (AID 686939)
Conditions: HEK293 GAL4-VP16 pG5luc reporter, at 9.1 µM, stronger effect = higher value, scaled: DMSO wells 0%, SAHA wells 100%
Procedure, shortened: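 Assay system – HEK293 GAL4-VP16 luciferase reporter cells · Input – 2,500 cells per well · Detection – One-Glo luciferase luminescence · Control set – DMSO wells as low control, SAHA wells as high control · Measure – percent activation scaled between DMSO (0%) and SAHA (100%) control medians · Times – 24 h compound treatment at 37 °C, 15 min detection incubation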

SMILES	activation
O=C(O)c1cccc(Nc2c([N+](=O)[O-])cc([N+](=O)[O-])cc2[N+](=O)[O-])c1	inactive: 1.09%
CN(C)C(=O)c1c([N+](=O)[O-])cc([N+](=O)[O-])cc1[N+](=O)[O-]	inactive: 0.93%
